Results taken from PubChem BioAssay (NCATS).
Only a part is listed here, and it is no random draw. Results filed as inconclusive are left out. Calls of active or inactive are those of the source. Calls follow the shape of the dose curve; as a rule, active = well fitted curve in either direction with a large enough effect (not every such curve was filed as active); inconclusive = small, poorly fitted or top-dose-only effect, or another doubt; inactive = flat fitted curve, though single readings scatter.
% is scaled to controls: 0 for no effect and ±100 for the full control effect.

Assay: AP1 Signaling Pathway (AID 357)
Details: ME-180 (cervical carcinoma) AP-1-bla reporter, EGF-induced, beta-lactamase ratio, 5 h; at 7.69 µM (top of the series) unless noted
From the text: NCGC Assay Overview: Activator protein-1 (AP-1), a transcription factor, plays an important role in tumor genesis by regulating genes involved in cell proliferation, differentiation, apoptosis, and angiogenesis. AP-1 activity is induced by a complex network of signaling pathways that involves extracellular signals, such as growth factors. The AP-1 protein complex formed from c-Fos and c-Jun binding to the AP-1 response element results in transcriptional activation of genes containing such elements within their promoter. Low molecular weight molecules have been discovered and developed to modulate various components of these signaling pathways, for example, MAP kinase inhibitors. However, many points of pathway modulation remain untested due to the lack of chemical probes making this signaling locus of general interest. Using a beta-lactamase reporter-gene under control of the AP-1 response element, a cell-based assay [CellSensor(TM) AP-1-bla ME-180 developed by Invitrogen Corp.] was used to measure EGF-induced signaling. Library compounds were measured for their ability to modulate positively or negatively the action of EC50 EGF on reporter gene activity. Compounds were screened in a titration series in 1536-well format. Positive and negative modulators were identified based on the AC50 values derived from the screening data.
NCGC Assay Protocol Summary: 2500 cells/5uL in Opti-MEM medium containing 0.5% dialyzed FBS, 0.1 mM NEAA, 1 mM sodium pyruvate and 10 mM HEPES was dispensed into 1536-well plates and cells were cultured at 37 degrees Celsius overnight. […] After centrifugation at 1000 rpm for 2 seconds the plates were incubated at 37 degrees Celsius for 5 hours. 1 uL of CCF4-dye mixture was added to each well. After incubated at room temperature for 2.5 hours the plates were measured on an EnVision plate reader at Excitation 405nm, Emission1=460nm and Emission 2=530nm. The %Activity was determined from the ratio of 460nm/530nm.
For `C(Cc1nn[nH]n1)c1nn[nH]n1`, the activity change, negative = inhibition was inactive: 7.66%. With `CN(C(=O)Cc1ccc(Cl)c(Cl)c1)[C@@H]1CC[C@@]2(CCCO2)C[C@H]1N1CCCC1` the activity change, negative = inhibition was inactive: 9.11% [at 38 µM]. With `CN(CCCl)Cc1cc(Cl)c(NC2=NCCN2)c(Cl)c1` the activity change, negative = inhibition was inactive: 7.8% [at 38 µM]. With `O=[As](O)(O)c1ccc([As](=O)(O)O)cc1` the activity change, negative = inhibition was inactive: 4.37%. For `O=[As]c1ccc(S(=O)(=O)NCCO)cc1` (configuration not stated), the activity change, negative = inhibition was inactive: 3.58%. With `NS(=O)(=O)Cc1ccc([As](=O)(O)O)cc1` the activity change, negative = inhibition was inactive: 1.04%. In the case of `O=C(CO)Nc1ccc([As](=O)(O)O)cc1`, the activity change, negative = inhibition is reported as inactive: -6.04%. In the case of `NCC[C@@H](N)CSP(=O)(O)O`, the activity change, negative = inhibition is reported as inactive: 7.15%. For `O=[N+]([O-])c1ccc(C[As](=O)(O)O)cc1`, the activity change, negative = inhibition was inactive: 0.621%. For `CN(C(=O)Cc1ccccc1)[C@@H]1CC[C@@]2(CCCO2)C[C@H]1N1CCCC1`, the activity change, negative = inhibition was inactive: 11.7% [at 38 µM]. In the case of `Cc1ccc(OCC(=O)OC2CN3CCC2CC3)cc1` (configuration not stated), the activity change, negative = inhibition is reported as inactive: -3.83% [at 17.2 µM]. For `CN(C(=O)Cc1ccc(Cl)c(Cl)c1)[C@@H]1CCCC[C@H]1N1CCCC1`, the activity change, negative = inhibition was inactive: 12% [at 38 µM] [middle of 4 runs]. With `CN1CCC[C@H](OC(=O)C(c2ccccc2)c2ccccc2)C1` the activity change, negative = inhibition was inactive: -3.51%. With `[N-]=[N+]=NCC(N)=O` the activity change, negative = inhibition was inactive: -6.87%. For `[N-]=[N+]=NCC(O)CN=[N+]=[N-]` (configuration not stated), the activity change, negative = inhibition was inactive: 5.82%. With `O=C(O)[C@@H](O)c1ccc([As](=O)(O)O)cc1` the activity change, negative = inhibition was inactive: -1.94%. With `O=C(CC(=O)c1ccccc1)O[C@H]1CN2CCC1CC2` the activity change, negative = inhibition was inactive: -3.22%. With `Cc1cccc(OCC(=O)OC2CN3CCC2CC3)c1` (configuration not stated) the activity change, negative = inhibition was inactive: -0.747% [at 17.2 µM]. For `[N-]=[N+]=Nc1ccc([As](=O)(O)O)cc1`, the activity change, negative = inhibition was inactive: 3.4%. In the case of `C[C@@H](O)COc1ccc([As](=O)(O)O)cc1N`, the activity change, negative = inhibition is reported as inactive: -1.83%. In the case of `NC(=O)Nc1ccc([As](=O)(O)O)cc1`, the activity change, negative = inhibition is reported as inactive: 4.45% [at 17.2 µM]. In the case of `NC(=O)Nc1cc([As](=O)(O)O)cc(I)c1O`, the activity change, negative = inhibition is reported as inactive: -5.16%.
